The assay relates to antibody from the 1F7-cell clone. Nature of the assay: heterologous ic-ELISA hybridoma screening, 1F7 clone. To be noted: free clothianidin 50 μg/L; IMI-H-OVA 5 μg/mL. On the technique in general: An ELISA detects its analyte on a solid surface through an enzyme-linked reagent.

The structures appear in SMILES notation.

Take `CN/C(=N\[N+](=O)[O-])NCc1cnc(Cl)s1` [clothianidin]: the “inhibition of antibody binding to IMI-H-OVA” value amounted to 74.63%.
